Measured values published in patent publication US20160010138A1, “RAPID DETERMINATION OF MICROBIAL DROWTH AND ANTIMICROBIAL SUSEPTABILITY” (priority 2013, published 2016).

Test system: Klebsiella pneumoniae (KP) clinical isolates
Test: KPC assay: growth in ertapenem with and without boronic acid inhibitor (MADM)
Assay type: cell-based
Conditions: KPC-positive isolate; ETP 16 μg/mL + APB 300 μg/mL (FIG. 20B vs 20C)
Description: A MADM system was used with a purpose-built 32-channel disposable fluidic cassette (FIG. 4A). Cassette flowcells (FIG. 4B) had transparent top and bottom surfaces to allow microscope imaging. The bottom surface was coated with poly-L-lysine to immobilize live bacteria.
Clinical isolates of Pseudomonas aeruginosa (PA), Acinetobacter baumannii (AB), and Klebsiella pneumoniae (KP) were tested. Test agents included amikacin (AN), imipenem (IMP), ceftazidime (CAZ), ertapenem (ETP), aminophenylboronic acid (APB), and benzo(b)thiophene-2-boronic acid (BTB). The boronic acids inhibit the KPC enzyme as well as AmpC. Test results are expressed as nonsusceptible (NS) or susceptible (S).
Isolates were grown on blood agar, suspended colonies in tryptic soy broth for 2 hours, then centrifuged and resuspended log-phase bacteria in low ionic strength electrokinetic buffer.
MADM system analysis was performed using a 32-channel disposable fluidic cassette (FIG. 4A) to measure growth of immobilized bacteria. […]
10 μL aliquots of 5E+7 CFU/mL were pipetted into separate flowcells for each isolate and test condition. […] The system measured growth at 10-minute intervals. […] Growth was evaluated, interpreting results for PA, AB, and KP-ETP as NS if growth had not arrested within 3 hours. […]

In the case of `Nc1cccc(B(O)O)c1` [APB, aminophenylboronic acid], the “difference between ETP alone and ETP+APB” value is reported as “enzyme inhibition and decreased resistance”.
